Data from patent US8975415B2, “Chromane compounds” (CoMentis, Inc., priority 2012, dated 2015).

Protein sequences, listed by entry. Tags and fused reporters are not part of them. Residues count along the entry.
UniProt P56817, 75-416: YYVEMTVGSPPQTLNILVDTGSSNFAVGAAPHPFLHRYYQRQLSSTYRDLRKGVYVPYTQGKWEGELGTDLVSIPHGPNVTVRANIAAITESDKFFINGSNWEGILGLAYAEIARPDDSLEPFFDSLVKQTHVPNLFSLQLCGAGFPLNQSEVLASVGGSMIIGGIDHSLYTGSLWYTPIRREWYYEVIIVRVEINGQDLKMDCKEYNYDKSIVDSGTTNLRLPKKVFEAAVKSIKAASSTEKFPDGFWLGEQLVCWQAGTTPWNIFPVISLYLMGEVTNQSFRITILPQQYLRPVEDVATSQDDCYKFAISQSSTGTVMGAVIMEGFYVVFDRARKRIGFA
UniProt P56817, 46-501: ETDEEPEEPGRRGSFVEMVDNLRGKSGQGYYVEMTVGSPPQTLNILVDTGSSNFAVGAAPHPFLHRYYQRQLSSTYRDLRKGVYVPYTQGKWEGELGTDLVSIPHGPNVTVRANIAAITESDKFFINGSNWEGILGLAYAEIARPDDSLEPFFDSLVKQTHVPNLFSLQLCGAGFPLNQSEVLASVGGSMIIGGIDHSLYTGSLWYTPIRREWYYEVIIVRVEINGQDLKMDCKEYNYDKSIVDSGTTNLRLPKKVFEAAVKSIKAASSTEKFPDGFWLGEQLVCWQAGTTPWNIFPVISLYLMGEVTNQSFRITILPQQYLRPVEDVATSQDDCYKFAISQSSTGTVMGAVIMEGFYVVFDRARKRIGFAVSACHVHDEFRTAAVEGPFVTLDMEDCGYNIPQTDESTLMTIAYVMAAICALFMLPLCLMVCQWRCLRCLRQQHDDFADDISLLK

Key:
BACE1 [1] = target: T1, BACE1 (Homo sapiens (Human), UniProt P56817); test: Measurement of BACE1 inhibition by fluorescence resonance energy transfer (FRET), MCA substrate; conditions: for Ki: read-out: Test Example 1 BACE1 MCA Ki, MCA substrate
BACE1 [2] = target: T1, BACE1; test: Measurement of Aβ production inhibition in cell (SK-N-BE(2) neuroblastoma cells, Aβ40 ELISA); conditions: read-out: Test Example 3 IC50, SK-N-BE(2) cells, 6 hours

SMILES | Ki (BACE1 [1]) | IC50 (BACE1 [1]; read-out: Test Example 1 IC50, MCA-SEVNLDAEFK(DNP)-NH2 substrate, pH 4.4) | IC50 (BACE1 [2])
CC1(C)Oc2ccc(NC(=O)c3ccc(Br)cn3)cc2[C@@]2(COC(N)=N2)C12COC2 [Example 219] | 10.2 nM | – | –
COc1cnc(C(=O)Nc2ccc3c(c2)[C@@]2(COC(N)=N2)C2(CC2)C(C)(C)O3)cn1 [Example 223, N-[(4′R)-2″-amino-2′,2′-dimethyldispiro[cyclopropane-1,3′-chromene-4′,4″-[1,3]oxazol]-6′-yl]-5-methoxypyrazine-2-carboxamide] | 61.2 nM | – | –
CC1(C)Oc2ccc(NC(=O)c3cnc(C(F)F)cn3)cc2[C@@]2(COC(N)=N2)C12CC2 [Example 224, N-[(4′R)-2″-amino-2′,2′-dimethyldispiro[cyclopropane-1,3′-chromene-4′,4″-[1,3]oxazol]-6′-yl]-5-(difluoromethyl)pyrazine-2-carboxamide] | 52.7 nM | 91.4 nM | –
NC1=NC2(CO1)c1cc(NC(=O)c3ncc(Cl)cc3F)ccc1OCC21CC1 (stereo not drawn) [RP 29] | – | – | 22 nM
CC#Cc1cncc(-c2ccc3c(c2)C2(COC(N)=N2)C2(COC2)C(C)(C)O3)c1 (stereo not drawn) [RP 110] | 90.4 nM | – | –
